# Ab-14 heavy chain CDR variants: yeast mating affinities

The target is the same throughout: PDVDLGDISGINAS, from the HR2 region of SARS-CoV-2 spike.

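In library AAYL49, one, two or three CDR residues were substituted; doubles and triples were drawn at random. The assay is AlphaSeq: two haploid yeast populations carry antibody and antigen on their surface. Pairs that bind mate more often; barcode pairs of the diploids are counted by sequencing. Read counts were normalised to the haploid input and turned into Kd by a linear fit to BCL2-family pairs of known affinity, for each replicate. The assay was run in three technical replicates.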

Ab-14 is the parent antibody, in scFv form: VH, then a (GGGGS)3 linker, then VL. The light chain is unchanged in all variants.
VH: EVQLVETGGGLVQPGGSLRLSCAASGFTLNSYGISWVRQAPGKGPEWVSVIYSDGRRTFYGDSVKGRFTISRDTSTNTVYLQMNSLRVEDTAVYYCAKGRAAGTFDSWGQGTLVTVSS
VL: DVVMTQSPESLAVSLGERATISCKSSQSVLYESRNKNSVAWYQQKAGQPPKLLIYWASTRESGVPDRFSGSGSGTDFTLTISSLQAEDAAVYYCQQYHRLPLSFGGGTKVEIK

Variants are written as CDR1, CDR2 and CDR3 of the heavy chain (limits as in the source). Parent: GFTLNSYGIS, VIYSDGRRTFYGDSVK, GRAAGTFDS. Scale: log10 of Kd in nM, estimated from mating counts; low values are strong binders. The mean shown is taken over the replicates in which the pair was detected. A pair that was not seen in that replicate is written "ND"; this usually means weak binding, but a binder can also be missed.

CDR-H1,CDR-H2,CDR-H3,"log10 Kd, replicates","log10 Kd (nM), mean",signal with controls
GFTLNSYGIS,VRSSDGRRTFYGTSVK,GRAAGTFDS,ND ND ND,ND,1 of 9 (3.07)
HFTLNSYGIS,VIYQDGRRTFYGDSVK,GIAAGTFDS,4.66 3.72 4.24,4.21,4 of 9 (4.98)
GFTWNSYGIS,VIYSDGRREFYGDSVK,GRCAGTFDS,ND ND ND,ND,0 of 9
GFTQNSYGIS,VIYSDGRRTFLGDSVK,GRAAGTADS,ND ND ND,ND,1 of 9 (3.73)
GFTLNEYGIS,VDYSDGRRTFYGDSVK,GRIAGTFDS,1.48 1.40 1.87,1.58,1 of 9 (3.21)
GFTLNSDGIS,VIYSDGRRTFYGDSVK,GTAAGTGDS,ND ND ND,ND,0 of 9
GFTLNSYGIS,VIYSDGRRMFYGDSVK,GRAAGTDDK,ND 3.73 5.44,4.59,2 of 9 (4.02)
GFTLNSYGIS,VIYSDGCRTFYGDSVK,GRAVGHFDS,ND 5.34 ND,5.34,2 of 9 (4.88)
GFTLNSYGIS,VINSDGRRTFYGDSVK,GRAARTFIS,ND ND ND,ND,1 of 9 (4.19)
GFTLNSYGIL,VIYSDGRRTFRGDSVK,GRAKGTFDS,3.94 ND ND,3.94,0 of 9
GFTLNSYGIS,VIYSDGMRTFYGDSVK,GRAAGTFDS,0.76 0.90 1.01,0.89,3 of 9 (3.72)
GFTLNSYGIS,VIYSDGRRTFYGDSVK,SAAAGKFDS,0.39 0.86 0.53,0.60,1 of 9 (4.00)
GFTLNSYGIS,VIYSDCRRTPYGDSVK,GRAAGTFGS,ND 3.37 ND,3.37,3 of 9 (3.79)
GFTSNSYGIS,VIYSDGGRTFYGDSVW,GRAAGTFDS,ND ND ND,ND,0 of 9
GFTLGSWGIS,VIYSDGRRTFYGDSVK,GRAAGTFDC,3.46 3.41 3.24,3.37,2 of 9 (4.21)
GFTLRSYGIS,VIYSDGRRTFYGDSVK,GRAAGHFSS,1.36 1.51 1.62,1.50,3 of 9 (3.43)
GFTLNSYGIS,VIYSDGRRTIYGDSVT,GRAASTFDS,ND ND 5.00,5.00,0 of 9
GFSTGSYGIS,VIYSDGRRTFYGDSVK,GRAAGTFDS,2.34 3.55 2.07,2.65,0 of 9
GFTLNSYGIS,RIYSDGRRTFYGDSVK,SRAAGTRDS,ND ND ND,ND,1 of 9 (4.29)
GFYLNSYHIS,VIYSDGRRTFYGDSVK,GRAAGTFWS,ND 3.59 4.86,4.22,4 of 9 (4.68)
GFTLNSYGIS,QIYSDGRRTFYGDSVK,GRAAGTFDS,ND ND ND,ND,1 of 9 (3.03)
GCTLNSYGIS,VIYSDGRRTFYGDSVF,GRAAGSFDS,3.42 4.87 4.53,4.27,2 of 9 (4.08)
GFTLNSYGIS,VIYSDGRRTFYMDSVK,GKWAGTFDS,1.98 1.45 1.43,1.62,0 of 9
GFTLNSYGPS,VIYSDGRETFYGDSVK,GRAAGTFDS,ND ND ND,ND,1 of 9 (3.31)
PVTLNSYGIS,VIYHDGRRTFYGDSVK,GRAAGTFDS,ND ND 3.44,3.44,1 of 9 (3.07)
GFTRRSYGIS,VIYSDGRRTFYGDSVK,GRAAGTFDS,ND ND ND,ND,1 of 9 (4.27)
GFILNSYVIS,VIYSDGRRTFYGDSVK,GRAAGHFDS,ND ND ND,ND,1 of 9 (4.15)
GFTLPSYGIS,VIYSDGRRTFWGDGVK,GRAAGTFDS,ND ND ND,ND,1 of 9 (3.19)
GFTLNSYGIS,VIYSDGRRTFYGMSVK,GRAQMTFDS,ND ND ND,ND,0 of 9
GNTLNSAGIS,VIYSDGRRTFYGDSVK,GRAAGTFLS,ND ND ND,ND,2 of 9 (4.25)
GFFLNSYGIS,VIYSDGRRTFKGDSVK,GRAALTFDS,ND ND ND,ND,3 of 9 (4.01)
DDTLNSYGIS,VIYSDGRRTEYGDSVK,GRAAGTFDS,2.41 1.66 2.09,2.05,2 of 9 (4.18)
GFTVNSYGIS,VIYSDGRRTVYPDSVK,GRAAGTFDS,ND ND 4.08,4.08,1 of 9 (3.81)
GFTLNSYGIS,VIYSDGRRTFYGDSVK,GRAAWYFDS,ND ND ND,ND,0 of 9
GFTLNSYGKS,VIYSDGRRTKYGDSVK,ARAAGTFDS,ND ND ND,ND,0 of 9
GFTLNSYGIS,VIYSDGRRTYYGDSVK,GEAAGTFDS,0.79 0.80 0.83,0.81,1 of 9 (4.70)
KFTLNSYGIS,VIYSDGRRTFYGDSVK,ERAAGTFDS,ND ND ND,ND,0 of 9
LFTLNSCGIS,VIYSDGERTFYGDSVK,GRAAGTFDS,ND ND ND,ND,1 of 9 (4.37)
GFTLRSYGIS,VIYSDGRRTFVGDSVK,GLAAGTFDS,ND 4.01 ND,4.01,1 of 9 (2.66)
GFTLNSYDIS,VIYSDGRRTFYGDSVK,GRWRGTFDS,ND ND ND,ND,3 of 9 (3.68)
KFTMNSYGIS,VIYSDGRRTFYGSSVK,GRAAGTFDS,1.55 2.00 2.15,1.90,0 of 9
GFTLNSYDIS,VIYSDGRHTFYGDSVK,GRAAQTFDS,2.48 1.96 2.17,2.21,0 of 9

From the list, the first 3 with no signal in any replicate:

CDR-H1,CDR-H2,CDR-H3,"log10 Kd, replicates","log10 Kd (nM), mean",signal with controls
GFTLNSYGIS,VRSSDGRRTFYGTSVK,GRAAGTFDS,ND ND ND,ND,1 of 9 (3.07)
GFTWNSYGIS,VIYSDGRREFYGDSVK,GRCAGTFDS,ND ND ND,ND,0 of 9
GFTQNSYGIS,VIYSDGRRTFLGDSVK,GRAAGTADS,ND ND ND,ND,1 of 9 (3.73)

Nonspecific signal, from three strains lacking the peptide, appeared in 15% of pairings of library AAYL49, centred on 4.06 (5% of these signals below 2.83); values are not corrected for it. Also given: how often the same scFv was detected with the empty control strains, with their mean in brackets. For reference, the parent read 0.65 as the reference entry and 4.11 (one replicate of three) as a member of this library.

Source: Engelhart et al. 2022 (doi:10.1038/s41597-022-01779-4), MIT Lincoln Laboratory and A-Alpha Bio; data file from the FLAb repository.